pKi: −log10 of the molar value.
Target: Carbonic anhydrase 12 (Homo sapiens, UniProt O43570)
Test: Inhibition of human recombinant catalytic domain CA12

Amino acid sequences for entries named in this document (tags omitted). Residues count along the entry.
UniProt O43570, 25-354 limits assumed: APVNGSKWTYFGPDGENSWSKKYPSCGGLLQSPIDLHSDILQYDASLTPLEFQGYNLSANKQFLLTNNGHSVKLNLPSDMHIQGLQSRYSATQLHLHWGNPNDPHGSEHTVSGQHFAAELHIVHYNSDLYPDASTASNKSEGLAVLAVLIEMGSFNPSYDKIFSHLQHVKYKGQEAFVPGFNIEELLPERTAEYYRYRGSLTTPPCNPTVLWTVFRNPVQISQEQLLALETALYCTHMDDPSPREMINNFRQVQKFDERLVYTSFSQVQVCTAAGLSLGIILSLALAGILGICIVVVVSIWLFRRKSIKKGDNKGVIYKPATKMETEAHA

SMILES: O=[As](O)(O)c1ccccc1
- pKi: 3.08

Reference: BindingDB's records for 17257840
